Measured values reported in US4713369A, “Oligopeptidylargininol derivatives and their homologs, a process for their preparation, their use and agents containing them” (Behringwerke Aktiengellschaft, priority 1985, dated 1987).

Sequences of proteins named here, by UniProt entry; tags and fusion partners are left off. Residues count along the entry.
UniProt P00742, 41-179 partner limits assumed: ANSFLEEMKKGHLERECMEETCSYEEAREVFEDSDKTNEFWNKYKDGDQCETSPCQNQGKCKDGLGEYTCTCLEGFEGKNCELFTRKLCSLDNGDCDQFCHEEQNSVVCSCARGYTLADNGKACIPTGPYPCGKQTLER
UniProt P00742, 235-488 limits assumed: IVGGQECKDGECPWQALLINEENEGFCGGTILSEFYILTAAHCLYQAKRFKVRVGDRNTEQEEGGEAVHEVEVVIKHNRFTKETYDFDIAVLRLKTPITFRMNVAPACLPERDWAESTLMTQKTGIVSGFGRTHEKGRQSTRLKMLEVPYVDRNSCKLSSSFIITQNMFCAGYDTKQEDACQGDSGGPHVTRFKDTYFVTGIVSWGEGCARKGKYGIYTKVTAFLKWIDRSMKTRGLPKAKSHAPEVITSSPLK
UniProt P00747, 97-580 partner limits assumed, species assumed: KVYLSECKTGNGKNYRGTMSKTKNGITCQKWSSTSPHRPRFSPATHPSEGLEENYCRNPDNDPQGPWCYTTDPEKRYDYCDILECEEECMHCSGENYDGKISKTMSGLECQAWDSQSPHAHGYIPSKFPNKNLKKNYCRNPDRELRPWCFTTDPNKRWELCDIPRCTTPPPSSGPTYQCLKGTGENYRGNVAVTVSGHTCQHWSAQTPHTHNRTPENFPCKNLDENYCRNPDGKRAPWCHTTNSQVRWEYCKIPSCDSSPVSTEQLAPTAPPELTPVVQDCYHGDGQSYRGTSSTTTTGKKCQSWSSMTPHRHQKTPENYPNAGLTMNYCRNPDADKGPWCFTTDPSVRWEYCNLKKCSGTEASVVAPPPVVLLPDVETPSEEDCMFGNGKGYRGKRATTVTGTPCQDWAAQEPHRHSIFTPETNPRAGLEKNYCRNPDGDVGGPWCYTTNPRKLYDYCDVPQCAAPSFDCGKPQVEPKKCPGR
UniProt P00747, 581-810 limits assumed, species assumed: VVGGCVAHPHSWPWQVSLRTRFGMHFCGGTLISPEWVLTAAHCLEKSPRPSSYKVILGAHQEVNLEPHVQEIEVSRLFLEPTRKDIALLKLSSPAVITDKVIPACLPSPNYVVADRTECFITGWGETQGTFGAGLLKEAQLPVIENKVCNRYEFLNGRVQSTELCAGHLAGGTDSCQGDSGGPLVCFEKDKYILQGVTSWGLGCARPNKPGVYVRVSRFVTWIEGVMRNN

How the values were obtained:
F Xa = F Xa (Homo sapiens, UniProt P00742); experiment: Inhibitory action against F Xa, analogous procedure (substrate Bzl-Ile-Glu-Gly-Arg pNA); format: biochemical; details: final inhibitor concentration 0.6 mmol/1
Text: F Xa substrate: Bzl-Ile-Glu-Gly-Arg pNA (50% of the Glu as the methyl ester) (c=3 mmol/liter)

plasmin = plasmin (Homo sapiens, UniProt P00747); experiment: Inhibitory action against plasmin, analogous procedure (substrate D-norvalylcyclohexylalanylarginyl paranitroanilide); format: biochemical; details: final inhibitor concentration 0.6 mmol/1
Text: (plasmin substrate: D-norvalylcyclohexylalanylarginyl paranitroanilide (c=3 mmol/l)).

`N=C(N)NCCCCCC(=O)Oc1ccc(CCC(=O)O)cc1` [4-carboxyethylphenyl ε-guanidinocaproate, reference compound] was tested, and the “F X a inhibition” value (F Xa) was 91 % inhibition and the Plasmin inhibition (plasmin) was 83 % inhibition.
